What is called inhibition is the change of the read-out against control, counted positive when it falls.

Molecules are shown by their SMILES. Only a part is listed here, and it is no random draw. Active and inactive are the calls of the source.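 Rule for the calls: active = mean replicate score, as percent of positive control median, at least 50; inconclusive = mean below 50 but one replicate at or above 50; inactive = mean and every replicate below 50.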

The record followed here is PubChem BioAssay AID1662 (Broad Institute, 2009).

The experiment is described as follows: S. pyogenes SKKanGAS growth inhibitors in kanamycin, primary screen, streptokinase expression inhibitor project, SKKanGAS strain, BacTiter-Glo luminescence (AID 1662).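 Note: strain carries kanamycin resistance gene driven by streptokinase promoter and grows in 40 µg/ml kanamycin; loss of luminescence reflects streptokinase promoter inhibition or plain growth inhibition; 0% = median of DMSO wells and 100% = positive control at its reference dose.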 The settings on record: 6 h, at 7.5 µM, hits give high values.
Regarding `CCCCOc1ccc(C(=O)NCC2(N3CCCCC3)CCCCC2)cc1OC`, the inhibition was inactive: 2.54%. Then `Cc1cc(SC(NC(=O)c2ccccc2)C(Cl)(Cl)Cl)nc(C(C)C)n1` (stereo unspecified), with inactive: 3.53%; and `CCOC(=O)Nc1ccc([As](=O)(O)O)c(O)c1`, with inactive: 3.75%.

As to `C/C=C1/CC(C)C(C)(O)C(=O)OCC2CCN3CCC(OC1=O)C23` (stereo unspecified), the inhibition is inactive: 4.93%. The result for `O=P(Nc1ccccn1)(c1cccc2ccccc12)c1cccc2ccccc12` reads inactive: -1.28%. In the case of `Cc1cc(SC(NC=O)C(Cl)(Cl)Cl)ncn1` (stereo unspecified), the inhibition is inactive: -15.1%. Then `O=[N+]([O-])c1ccc(Nc2ccc(Oc3ccc([N+](=O)[O-])cc3[N+](=O)[O-])cc2)c([N+](=O)[O-])c1`, with inactive: 13.6%; and `CCOC(=O)Nc1cccc([As](=O)(O)O)c1`, with inactive: -5.31%; and `O=C(COc1ccccc1)OC1CN2CCC1CC2` (stereo unspecified), with inactive: -1.57%.

For `O=C(Nc1ccncc1[N+](=O)[O-])c1ccc([N+](=O)[O-])cc1[N+](=O)[O-]`, the inhibition was inactive: 9.5%. With `COP1(=S)c2c(C)nn(CCC#N)c2N=C(c2ccc(F)cc2)N1C` (stereo unspecified), the inhibition was inactive: -2.95%. Consider `CCC(C)N(CC(C)C)C(=S)SC(NC(C)=O)C(Cl)(Cl)Cl` (stereo unspecified), for which the inhibition is inactive: 32.7%. Regarding `O=C(OC1CN2CCC1CC2)c1cccc([N+](=O)[O-])c1` (stereo unspecified), the inhibition is inactive: -4.68%.

`CCOC(=O)c1ccc(NC(=O)C(C)(CCl)SC)cc1` (stereo unspecified): the inhibition was inactive: -3.55%. The result for `COc1ccc2nc(NP(=O)(c3ccccc3)c3ccccc3)sc2c1` reads inactive: 1.93%; that for `COc1cc(I)ccc1[As](=O)(O)O`, inactive: -2.85%. The result for `Cc1c2c(nc3ccccc13)SC(C(Cl)Cl)C2` (stereo unspecified) reads inactive: 4.77%; that for `O=C(OC1CN2CCC1CC2)C12CC3CC(CC(C3)C1)C2` (stereo unspecified), inactive: -8.65%; that for `Cc1cc(=O)[nH]c(N[N+](=O)[O-])n1`, inactive: -1.49%.

Turning to `COc1ccc(N/C(=N/P(=O)(N2CCOCC2)N2CCOCC2)N2CCOCC2)cc1`, the inhibition was inactive: 7.16%. Then `Cc1ccc(OP(=O)(Nc2ccc([N+](=O)[O-])cn2)Oc2ccc(C)cc2)cc1`, with inactive: -0.177%. The result for `Cc1ccc2nc3c(c(C)c2c1)CC(C(Cl)Cl)S3` (stereo unspecified) reads inactive: -14%. For `O=[As](O)(c1ccc(O)cc1)c1ccccc1O`, the inhibition is inactive: 0.231%. Then `C[As](=O)(O)c1cccc(C(=O)O)c1`, with inactive: 2.62%; and `CCN(CC)C(=S)SC(NC=O)C(Cl)(Cl)Cl` (stereo unspecified), with inactive: -2.39%. Then `CC(C)NC(=O)NP(=O)(Oc1ccccc1)Oc1ccccc1`, with inactive: -0.348%.

With `O=[N+]([O-])c1cc([N+](=O)[O-])c(-c2ccn[nH]2)s1`, the inhibition was inactive: 2.25%.

Turning to `ClCCSc1nnc(-c2cccnc2)o1`, the inhibition was inactive: 0.521%. Turning to `CC(C)c1ccc(OP(=O)(Nc2ccccn2)Oc2ccccc2F)cc1` (stereo unspecified), the inhibition was inactive: 0.623%. The result for `Nc1ccccc1[As](=O)(O)c1ccccc1` reads inactive: -1.12%; that for `O=C(O)COc1ccc([As](=O)(O)O)cc1[N+](=O)[O-]`, inactive: 2.34%. Then `CCOP1(=S)c2c(C)nn(CCC#N)c2N=C(c2ccccc2F)N1C` (stereo unspecified), with inactive: -7.62%. With `O=P(Nc1nccs1)(c1ccccc1)c1nc2ccccc2s1` (stereo unspecified), the inhibition was inactive: -30.3%. Then `O=P(Nc1nccs1)(Oc1ccccc1)Oc1ccccc1`, with inactive: -28.9%; and `CS(=O)(=O)c1cc([N+](=O)[O-])c2no[n+]([O-])c2c1`, with inactive: -9.75%. Then `N#CCCN(C(=O)COC(=O)C(O)(c1ccccc1)c1ccccc1)c1ccc(F)cc1`, with inactive: -3.14%; and `CN(C(=O)Cc1ccccc1)[C@@H]1CC[C@]2(CCCO2)C[C@H]1N1CCCC1`, with inactive: 1.11%. Then `CCOP1(=S)c2c(C)nn(CCC#N)c2N=C(c2ccc(F)cc2)N1C` (stereo unspecified), with inactive: -2.42%. For `CN(C)C(=O)c1cc([N+](=O)[O-])cc2c1-c1c(cc([N+](=O)[O-])cc1[N+](=O)[O-])C2=O`, the inhibition was inactive: 31.1%.

On to `O=[N+]([O-])c1ccc2c(c1)nnn2O`, for which the inhibition was inactive: 0.015%.

As for `CN(C(=O)Cc1ccc(Cl)c(Cl)c1)[C@H]1CC[C@@]2(CCCO2)C[C@@H]1N1CCCC1`, the inhibition was inactive: -2.59%. Then `NC(=O)Nc1ccc([As](=O)(O)O)cc1`, with inactive: -1.84%. Take `O=[As](O)(c1cccc(O)c1)c1cccc(O)c1`: the inhibition was inactive: -7.82%. The result for `Cc1cccc(OCC(=O)OC2CN3CCC2CC3)c1` (stereo unspecified) reads inactive: 1.73%; that for `O=C(OC1CN2CCC1CC2)c1ccc(Cl)cc1` (stereo unspecified), inactive: 3.64%; that for `COc1cc(C(=O)NCC2(N3CCOCC3)CCCCC2)cc(Cl)c1OC(C)C`, inactive: -5.13%. As for `O=[As](O)(O)c1cccnc1`, the inhibition was inactive: -1.44%. Then `CS(=O)(=O)c1ccc(Cl)c(NC(=O)COC(=O)C(O)(c2ccccc2)c2ccccc2)c1`, with inactive: 1.22%; and `COc1cc(C2NCCC3(OCCO3)C2(C)C)cc(OC)c1OC` (stereo unspecified), with inactive: 0.307%. Then `CCOP(=O)(Nc1cccc2ccccc12)OCC`, with inactive: 1.89%. Take `Nc1cccc2c([As](=O)(O)O)cccc12`: the inhibition is inactive: 0.964%. Then `Cc1ccc(NCCc2c([N+](=O)[O-])cc([N+](=O)[O-])cc2[N+](=O)[O-])cc1`, with inactive: 10.5%; and `CCCOP(=S)(Nc1nc(N)cc(=O)[nH]1)OCCC`, with inactive: 28.6%. As for `Clc1n[nH]nc1-c1nn[nH][15n]1`, the inhibition was inactive: 1.84%. The result for `CC(C)(C)C(=O)NC(Sc1ncccn1)C(Cl)(Cl)Cl` (stereo unspecified) reads inactive: 8.9%; that for `O=P1(Nc2ccccn2)COc2ccccc2OC1`, inactive: -7.52%; that for `CCC1=CC2Cc3nc4ccc(Cl)cc4c(N)c3C(C1)C2` (stereo unspecified), inactive: 0.872%. Turning to `CCOP(=O)(NC(=NC(C)c1ccccc1)NC(C)c1ccccc1)OCC` (stereo unspecified), the inhibition is inactive: -1.34%. With `CN(CCCl)Cc1cc(Cl)c(NC2=NCCN2)c(Cl)c1`, the inhibition was inactive: -4.87%. Turning to `CCOP(=O)(Nc1ccc(C)cn1)OCC`, the inhibition is inactive: -1.17%. The result for `CC(C)/C=N\N=C(\N)N[N+](=O)[O-]` reads inactive: -0.0345%. Then `CN(C(=O)Cc1ccc(Cl)c(Cl)c1)[C@@H]1CCCC[C@H]1N1CCCC1`, with inactive: -3.7%; and `O=[As](O)(c1ccccc1Br)c1ccccc1Br`, with inactive: 3.64%. Then `CC1(CBr)Cn2c(nc3ccccc3c2=O)S1` (stereo unspecified), with inactive: -3.69%; and `COc1ccccc1CNC(=O)COC(=O)C(O)(c1ccccc1)c1ccccc1`, with inactive: -2.36%.

As to `CN(C)C1(CNC(=O)c2ccc(S(C)(=O)=O)cc2)CCCCC1`, the inhibition is inactive: 4.3%.

Turning to `O=C(/C=C/c1ccccc1)OC1CN2CCC1CC2` (stereo unspecified), the inhibition was inactive: 4.45%. The result for `Cc1nn(-c2ccccc2)c2c1P(=O)(N1CCOCC1)N(C)C(c1ccccc1)=N2` (stereo unspecified) reads inactive: 2.75%; that for `CC1CCC(C(C)C)C(OP(=O)(Nc2ccccn2)c2ccccc2)C1` (stereo unspecified), inactive: -0.628%; that for `Cc1ccc(C(=O)OC2CN3CCC2CC3)cc1` (stereo unspecified), inactive: -1.41%.

In the case of `Nc1cccc([As](=O)(O)c2ccccc2)c1`, the inhibition is inactive: 0.337%.

Take `O=[As](O)(c1cccs1)c1cccs1`: the inhibition was inactive: 16%. Then `Cc1ccc(OCC(=O)OC2CN3CCC2CC3)cc1` (stereo unspecified), with inactive: 4.43%; and `O=P1(Nc2ncccn2)COc2ccccc2OC1`, with inactive: -0.404%. As for `O=P(Nc1nc2ccccc2s1)(c1ccccc1)c1ccccc1`, the inhibition is inactive: 14.5%. As to `C[C@H]1OP(=O)(Oc2ccccc2)[C@H](O)[C@H](O)[C@H]1N=[N+]=[N-]` (stereo partly specified), the inhibition is inactive: -0.0634%. Then `O=P(Nc1ccccn1)(c1ccc(Br)cc1)c1ccc(Br)cc1`, with inactive: 2.17%; and `CN(C)C1(CNC(=O)c2ccc(Cl)c(S(N)(=O)=O)c2)CCCCC1`, with inactive: -2.21%; and `O=C(OC1CN2CCC1CC2)c1cccc(Cl)c1` (stereo unspecified), with inactive: 0.527%. Regarding `Nc1ccc([As](=O)(O)c2ccc([N+](=O)[O-])cc2)cc1`, the inhibition was inactive: 0.474%.

As to `C(Cc1nn[nH]n1)Cc1nn[nH]n1`, the inhibition was inactive: -0.795%. Take `O=[As](O)(c1ccccc1)c1ccc(O)cc1`: the inhibition was inactive: -5.52%. Regarding `O=[N+]([O-])c1ccc(O)c(/C=N/Nc2ccc([N+](=O)[O-])cc2[N+](=O)[O-])c1`, the inhibition is inactive: 9.23%. The result for `O=[N+]([O-])c1ncn(CCn2cnc([N+](=O)[O-])n2)n1` reads inactive: -7.44%. For the compound `CC(=O)NC(SC(=S)N(C)C)C(Cl)(Cl)Cl` (stereo unspecified), the inhibition is inactive: 8.14%.

Turning to `c1nnnn1CCn1cnnn1`, the inhibition was inactive: 0.626%. Turning to `CC(C)C(=O)NC(Sc1ccccc1)C(Cl)(Cl)Cl` (stereo unspecified), the inhibition is inactive: -1.62%. The result for `O=P(Nc1nccs1)(c1ccccc1)c1ccccc1` reads inactive: -7.08%; that for `CC(C)(C)C(=O)NC(Sc1ccccc1)C(Cl)(Cl)Cl` (stereo unspecified), inactive: 4.91%; that for `O=P1(Nc2nc3ccc(Cl)cc3s2)COc2ccccc2O1` (stereo unspecified), inactive: -1.06%. The result for `CCOc1ccc(C2=NCC(CBr)S2)cc1` (stereo unspecified) reads inactive: -7.31%; that for `CC(=O)Nc1ccc([As](=O)(O)O)c(O)c1`, inactive: -14.2%; that for `CC(=O)Nc1ccc(Oc2c([N+](=O)[O-])cc([N+](=O)[O-])cc2[N+](=O)[O-])cc1`, inactive: 2.48%. Then `C[C@@H]1C=CCP(=O)(Oc2ccccc2)O1` (stereo partly specified), with inactive: 0.469%; and `C[C@H]1OP(=O)(Oc2ccccc2)C[C@@H]2O[C@@H]21` (stereo partly specified), with inactive: -0.458%; and `CC(=O)c1ccc(N2CC2c2ccncc2)cc1` (stereo unspecified), with inactive: -2.98%. In the case of `c1ccc(-c2nn[nH]n2)c(-c2nn[nH]n2)c1`, the inhibition is inactive: 6.44%. Take `CCOC(=O)NC(Sc1ccccc1)C(Cl)(Cl)Cl` (stereo unspecified): the inhibition is inactive: 8.79%. The result for `Cc1ccc(NP(=O)(Oc2cccc(C)c2)Oc2cccc(C)c2)nc1` reads inactive: -1.18%; that for `CCNC(=S)/N=C(\N)N[N+](=O)[O-]`, inactive: -4.7%. Regarding `O=C(NC1CCS(=O)(=O)C1)NP(=S)(Oc1ccccc1)Oc1ccccc1` (stereo unspecified), the inhibition is inactive: 11.5%.
